Results taken from article PMC3972757.

Assays:
[1] = molecular target: UIM-SH3 of STAM2; assay: ITC
[2] = molecular target: SH3 domain of STAM2 (UniProt O75886); assay: ITC

| Kd [1] | dH [2] | Substance |
| --- | --- | --- |
| 54 µM | – | Lys63-linked diubiquitin (from UniProt P0CG47 1-76) |
| – | -4.1 kcal/mol | ubiquitin (from UniProt P0CG47 1-76) (natural protein) |
